The text below walks through data of US8569267B2, “Tetracyclic tetrahydrofuran derivatives containing cyclic amine side chain” (Janssen Pharmaceutica, NV, priority 2005, dated 2013).

By UniProt entry, the sequences of proteins in these tests, tags left out. Where a name states a change or a piece, a line headed by the entry shows the natural chain unless it says otherwise. Residues count along the entry.
UniProt P28223, whole entry: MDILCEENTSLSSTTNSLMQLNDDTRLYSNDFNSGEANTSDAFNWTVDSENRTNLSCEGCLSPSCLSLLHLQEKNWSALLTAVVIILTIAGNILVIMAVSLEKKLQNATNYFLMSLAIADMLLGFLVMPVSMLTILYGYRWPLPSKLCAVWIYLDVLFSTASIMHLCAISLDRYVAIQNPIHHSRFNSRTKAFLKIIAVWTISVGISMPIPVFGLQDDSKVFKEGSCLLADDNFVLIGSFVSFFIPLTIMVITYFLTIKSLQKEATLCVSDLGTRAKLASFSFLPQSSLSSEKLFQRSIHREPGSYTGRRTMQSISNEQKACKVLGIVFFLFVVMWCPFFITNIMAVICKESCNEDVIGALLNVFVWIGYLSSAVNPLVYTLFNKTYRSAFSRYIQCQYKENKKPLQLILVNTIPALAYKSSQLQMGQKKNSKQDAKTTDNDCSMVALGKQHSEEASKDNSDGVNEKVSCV
UniProt P28335, 33-458 limits assumed: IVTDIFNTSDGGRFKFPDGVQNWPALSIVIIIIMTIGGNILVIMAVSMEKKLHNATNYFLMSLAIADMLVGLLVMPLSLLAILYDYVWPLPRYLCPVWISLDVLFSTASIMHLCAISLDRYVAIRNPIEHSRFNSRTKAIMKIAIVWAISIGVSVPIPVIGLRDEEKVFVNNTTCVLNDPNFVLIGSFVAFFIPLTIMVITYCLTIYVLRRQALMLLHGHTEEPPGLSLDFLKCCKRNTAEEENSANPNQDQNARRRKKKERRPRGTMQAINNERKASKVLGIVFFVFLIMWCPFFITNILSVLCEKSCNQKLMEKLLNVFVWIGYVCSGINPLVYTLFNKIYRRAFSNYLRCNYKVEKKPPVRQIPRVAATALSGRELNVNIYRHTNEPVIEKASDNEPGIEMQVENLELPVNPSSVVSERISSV
UniProt P14416, whole entry: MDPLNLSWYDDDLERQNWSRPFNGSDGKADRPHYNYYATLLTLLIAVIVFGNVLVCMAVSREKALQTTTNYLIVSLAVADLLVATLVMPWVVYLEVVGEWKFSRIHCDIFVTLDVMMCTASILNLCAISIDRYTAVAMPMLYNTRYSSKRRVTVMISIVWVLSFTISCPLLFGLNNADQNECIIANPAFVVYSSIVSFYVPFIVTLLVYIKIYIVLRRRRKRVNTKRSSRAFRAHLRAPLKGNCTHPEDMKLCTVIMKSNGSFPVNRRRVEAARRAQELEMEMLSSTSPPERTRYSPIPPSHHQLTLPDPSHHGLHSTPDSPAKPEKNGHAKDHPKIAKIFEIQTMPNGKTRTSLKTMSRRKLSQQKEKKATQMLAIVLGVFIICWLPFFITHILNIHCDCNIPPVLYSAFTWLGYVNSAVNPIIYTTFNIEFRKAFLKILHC
UniProt Q63380, 1-617: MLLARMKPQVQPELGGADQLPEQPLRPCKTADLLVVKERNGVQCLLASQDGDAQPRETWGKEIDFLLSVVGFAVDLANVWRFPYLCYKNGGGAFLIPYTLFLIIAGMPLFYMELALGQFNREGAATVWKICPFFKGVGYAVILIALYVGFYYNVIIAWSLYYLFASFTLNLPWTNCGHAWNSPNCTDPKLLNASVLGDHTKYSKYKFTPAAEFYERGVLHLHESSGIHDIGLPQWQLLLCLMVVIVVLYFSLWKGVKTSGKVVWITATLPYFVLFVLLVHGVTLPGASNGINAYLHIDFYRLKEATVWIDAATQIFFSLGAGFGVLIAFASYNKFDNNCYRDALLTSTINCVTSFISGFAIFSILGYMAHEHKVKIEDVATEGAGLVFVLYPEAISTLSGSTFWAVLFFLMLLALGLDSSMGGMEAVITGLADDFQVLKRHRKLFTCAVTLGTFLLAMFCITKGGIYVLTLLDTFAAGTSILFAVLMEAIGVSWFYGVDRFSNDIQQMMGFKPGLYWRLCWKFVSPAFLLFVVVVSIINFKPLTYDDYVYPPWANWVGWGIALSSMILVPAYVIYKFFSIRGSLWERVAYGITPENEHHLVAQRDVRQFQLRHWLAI

Read-outs that look alike come from different tables or passages of the source.

The target of assay [1] is human cloned 5-HT2A receptor, expressed in L929 cells (Homo sapiens, UniProt P28223). Put plainly: In vitro binding affinity for 5-HT2A receptor ([125I]R91150 radioligand binding). Particulars: human cloned 5-HT2A receptor in L929 cells. Here is the method: In Vitro Binding Affinity for 5-HT2A and 5-HT2C Receptors
The interaction of the compounds of Formula (I) with 5-HT2A and 5-HT2C receptors was assessed in in vitro radioligand binding experiments. In general, a low concentration of a radioligand with a high binding affinity for the receptor is incubated with a sample of a tissue preparation enriched in a particular receptor (1 to 5 mg tissue) in a buffered medium (0.2 to 5 ml). During the incubation, the radioligands bind to the receptor. When equilibrium of binding is reached, the receptor bound radioactivity is separated from the non-bound radioactivity, and the receptor bound activity is counted. The interaction of the test compounds with the receptors is assessed in competition binding experiments. Various concentrations of the test compound are added to the incubation mixture containing the tissue preparation and the radioligand. Binding of the radioligand will be inhibited by the test compound in proportion to its binding affinity and its concentration. The affinities of the compounds for the 5-HT2 receptors were measured by means of radioligand binding studies conducted with: (a) human cloned 5-HT2A receptor, expressed in L929 cells using [^125I]R91150 as radioligand and (b) human cloned 5-HT2C receptor, expressed in CHO cells using [^3H]mesulergine as radioligand. […]

Assay [2] deals with human cloned 5-HT2C receptor, expressed in CHO cells (Homo sapiens, UniProt P28335). Put plainly: In vitro binding affinity for 5-HT2C receptor ([3H]mesulergine radioligand binding).
Assay [3] concerns the target human Dopamine D2L receptor (Homo sapiens, UniProt P14416). Put plainly: In vitro binding affinity for human D2L receptor ([3H]Spiperone binding). Particulars: human D2L receptor-transfected CHO cell membranes.
Assay [4] has as its target NET (norepinephrine transporter) (Rattus norvegicus, UniProt Q63380). The experiment in a line: In vitro determination of NET reuptake inhibition ([3H]Nixosetine binding, rat brain cortex).

As to `N#Cc1ccc2c(c1)Cc1ccc(F)cc1C1OC(CN3CCC(O)C3)CC21` (centres unmarked), the “5-HT2A pIC50” value in assay [1] worked out at 7.60. In assay [2], the “5-HT2C pIC50” value came to 7.65. For the same compound, the “D2L pIC50” value in assay [3] is 6.76. In addition, the “NET pIC50” value in assay [4] is reported as 5.16.
As for `Fc1ccc(-c2ccc(CN3CCN(CC4CC5c6ccccc6Cc6ccc(F)cc6C5O4)CC3)o2)c(F)c1` (centres unmarked), in assay [1] (tested form: TFA), the “5-HT2A pIC50” value came to 7.15. The “5-HT2C pIC50” value in assay [2] (tested form: TFA) was determined as 6.83. In assay [3] (tested form: TFA), the “D2L pIC50” value amounted to 6.97. Besides, the “NET pIC50” value in assay [4] (tested form: TFA) is on record as 5.75.
